Assay results published in publication PMC11162469, “Discovery of RXFP2 genetic association in resistant hypertensive men and RXFP2 antagonists for the treatment of resistant hypertension” (Scientific Reports, 2024).

Sequences of proteins named here, by UniProt entry; tags and fusion partners are left off. Residues count along the entry.
UniProt Q8WXD0, whole entry: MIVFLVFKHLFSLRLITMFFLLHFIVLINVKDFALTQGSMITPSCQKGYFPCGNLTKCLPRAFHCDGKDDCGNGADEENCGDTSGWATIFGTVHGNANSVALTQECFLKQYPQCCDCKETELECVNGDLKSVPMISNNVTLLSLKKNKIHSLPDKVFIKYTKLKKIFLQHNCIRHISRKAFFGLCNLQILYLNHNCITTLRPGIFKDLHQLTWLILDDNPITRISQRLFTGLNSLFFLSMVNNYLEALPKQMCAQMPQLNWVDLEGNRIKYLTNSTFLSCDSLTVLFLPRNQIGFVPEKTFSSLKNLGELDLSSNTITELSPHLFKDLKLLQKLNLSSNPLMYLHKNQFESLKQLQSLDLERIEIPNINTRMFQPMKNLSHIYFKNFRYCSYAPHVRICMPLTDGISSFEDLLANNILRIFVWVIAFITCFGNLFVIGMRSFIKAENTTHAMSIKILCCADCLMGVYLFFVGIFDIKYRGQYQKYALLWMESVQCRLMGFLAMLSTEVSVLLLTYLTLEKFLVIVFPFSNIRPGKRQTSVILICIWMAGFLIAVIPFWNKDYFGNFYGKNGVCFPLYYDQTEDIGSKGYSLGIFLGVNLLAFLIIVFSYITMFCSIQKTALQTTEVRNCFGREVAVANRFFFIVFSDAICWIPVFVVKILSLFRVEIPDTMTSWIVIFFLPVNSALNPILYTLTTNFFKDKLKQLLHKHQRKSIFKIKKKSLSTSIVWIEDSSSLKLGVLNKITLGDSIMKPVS
UniProt Q9HBX9, whole entry: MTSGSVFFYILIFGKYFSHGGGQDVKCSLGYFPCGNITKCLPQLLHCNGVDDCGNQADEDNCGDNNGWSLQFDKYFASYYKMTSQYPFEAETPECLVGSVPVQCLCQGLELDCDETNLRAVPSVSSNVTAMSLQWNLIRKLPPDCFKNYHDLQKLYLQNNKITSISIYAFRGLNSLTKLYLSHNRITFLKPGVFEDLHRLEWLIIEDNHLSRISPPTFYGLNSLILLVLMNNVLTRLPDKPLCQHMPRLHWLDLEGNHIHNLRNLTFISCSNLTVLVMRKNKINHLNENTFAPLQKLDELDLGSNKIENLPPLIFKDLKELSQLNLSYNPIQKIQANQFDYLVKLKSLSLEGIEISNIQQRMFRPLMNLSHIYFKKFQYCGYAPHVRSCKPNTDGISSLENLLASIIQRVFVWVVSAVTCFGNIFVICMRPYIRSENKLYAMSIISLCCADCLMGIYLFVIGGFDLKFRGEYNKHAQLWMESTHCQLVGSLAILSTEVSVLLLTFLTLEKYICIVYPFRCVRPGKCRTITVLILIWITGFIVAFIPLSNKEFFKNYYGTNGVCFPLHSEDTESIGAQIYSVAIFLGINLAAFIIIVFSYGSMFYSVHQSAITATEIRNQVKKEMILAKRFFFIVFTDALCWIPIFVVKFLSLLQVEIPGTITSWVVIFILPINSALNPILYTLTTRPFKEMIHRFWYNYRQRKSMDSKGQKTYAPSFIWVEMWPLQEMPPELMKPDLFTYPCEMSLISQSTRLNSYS
UniProt F7EMH8, 20-737 limits assumed: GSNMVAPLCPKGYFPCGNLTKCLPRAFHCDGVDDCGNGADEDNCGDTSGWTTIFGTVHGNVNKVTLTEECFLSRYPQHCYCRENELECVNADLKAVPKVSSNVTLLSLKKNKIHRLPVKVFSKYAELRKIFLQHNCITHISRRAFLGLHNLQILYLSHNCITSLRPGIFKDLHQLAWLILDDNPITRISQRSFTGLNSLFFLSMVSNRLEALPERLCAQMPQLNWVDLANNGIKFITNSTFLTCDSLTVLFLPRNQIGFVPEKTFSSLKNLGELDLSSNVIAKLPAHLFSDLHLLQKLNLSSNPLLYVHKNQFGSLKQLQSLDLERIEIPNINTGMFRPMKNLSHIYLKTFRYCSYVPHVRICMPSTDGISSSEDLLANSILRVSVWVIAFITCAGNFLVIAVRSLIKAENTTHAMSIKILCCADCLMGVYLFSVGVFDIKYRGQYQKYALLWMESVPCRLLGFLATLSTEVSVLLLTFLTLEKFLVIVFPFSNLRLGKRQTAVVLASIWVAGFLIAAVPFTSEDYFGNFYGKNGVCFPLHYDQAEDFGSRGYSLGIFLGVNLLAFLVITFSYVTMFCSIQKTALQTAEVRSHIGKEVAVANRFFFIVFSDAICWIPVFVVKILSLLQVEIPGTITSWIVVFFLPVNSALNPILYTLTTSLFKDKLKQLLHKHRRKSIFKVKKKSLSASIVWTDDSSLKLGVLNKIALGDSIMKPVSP

Assays:
[1] = molecular target: human RXFP2 (Homo sapiens, UniProt Q8WXD0); experiment: INSL3-stimulated cAMP assay in HEK293 with BacMam expression of human RXFP2; settings: for Human RXFP2 % Max response: INSL3-stimulated cAMP; for Human RXFP2 % Max response / IC50: HEK cells with Bacmam hRXFP2, mean; for IC50: read-out: Human RXFP2 IC50, INSL3 EC80-stimulated cAMP
Procedure: A high throughput screen (HTS) assay was developed using HEK293 cells transduced with RXFP2 via baculovirus-mediated gene transfer (BacMam)[40]. […] The primary assay was performed using homogenous time resolved fluorescence (HTRF) to detect compound inhibition of INSL3 EC80-induced cAMP in HEK293 expressing human RXFP2 (hRXFP2; INSL3 EC50 = 0.048 nM). The HTS campaign identified 104 hits across 8 clusters showing blockade of hRXFP2.
(§1) The nucleotide sequences used in Bacmam transfections encoded RXFP protein as described in UniProt (Q9HBX9. RXFP1_human; Q8WXD0. RXFP2_human; Q5ECL0. RXFP2_rat). HEK293- MSRII cells were maintained in DMEM‐F12, supplemented with 10% fetal bovine serum (FBS) and L-glutamine at 37 °C/5% CO2. HEK293 stably expressing Gα16 were maintained in DMEM‐F12, supplemented with 10% FBS, L-glutamine and selection antibiotics at 37 °C/5% CO2. Transient receptor expression was achieved using modified baculoviruses (BacMam), generated according to manufacturer’s instructions using the Bac-to-Bac system (Invitrogen, UK) encoding hRXFP1, hRXFP2 or rRXFP2. Cells were transduced with RXFP-BacMam at an optimized multiplicity of infection (MOI) of 5.
(§2) cAMP generation was measured using the Lance Ultra cAMP kit as per manufacturer’s instructions (Perkin Elmer) in HEK293 cells transduced in tissue culture flasks with RXFP BacMam, incubated at 37 °C/5% CO2 for 18 h before assay. Primary single shot HTS and specificity assays were performed in 1536-well format. HEK293 wild type (wt) or RXFP2-transduced HEK293 cells were detached, washed in PBS and resuspended in assay buffer (HBSS, 5 mM Hepes, 0.1% BSA, 0.5 mM IBMX, pH 7.4). The cell solution was plated at a density of 500 cells/well in 3 µL into white, 1536-well plates pre-stamped with 50 nL of test compound and incubated for 30 min. Agonist stimulation was induced with the addition of a further 2 µL of assay buffer supplemented with a final EC80 concentration of ligand (20 nM Isoprenaline- no RXFP receptor or 4.5 pM INSL3- RXFP receptor). After a 30 min incubation, 4 µL of Lance detection reagent was added and the FRET signal read 1 h later using a TR-FRET-capable plate reader, with excitation at 340 nm and emission at 615 nm and 665 nm. Results were expressed as acceptor fluorescence (signal at 665 nm/signal at 615 nm) normalized to 100% inhibition and 0% inhibition controls (+/− agonist stimulation respectively). Further confirmation, selectivity and ortholog cAMP assays were performed post-HTS in 384-well format using a modified protocol. Here, 10,000 cells/well were plated in 5 µL into white, 384-well plates pre-stamped with 100 nL of test compound and incubated for 30 min. Agonist stimulation was induced with the addition of a further 5 µL of assay buffer supplemented with a final EC80 concentration of ligand (120 nM INSL3- RXFP2, 0.89 nM INSL3- rRXFP2, 1.6 nM H2 Relaxin- RXFP1). After a 30 min incubation, 10 µL of Lance detection reagent was added and results collected as above.

[2] = Solubility by CAD
Source text: Table 1 Discovery of small molecule RXFP2 antagonists. | column: CAD SOL (μg/mL)

[3] = molecular target: rat RXFP2 (Rattus norvegicus, UniProt Q5ECL0); experiment: INSL3-stimulated cAMP assay in HEK293 with BacMam expression of rat RXFP2; settings: HEK cells with Bacmam rRXFP2, mean; for Rat RXFP2 % Max Response: INSL3-stimulated cAMP; for IC50: read-out: Rat RXFP2 IC50, INSL3 EC80-stimulated cAMP
Procedure: (§3) Active compounds (RXFP2 HTRF IC50 < 100 µM, RXFP2 FLIPR IC50 < 100 µM) were profiled to determine selectivity and rat cross-reactivity (Fig. 2). The RXFP1 assay detected compound inhibition of relaxin EC80-induced cAMP in HEK293 transiently expressing human RXFP1 (hRXFP1). The orthologue RXFP2 assay detected compound inhibition of INSL3 EC80-induced cAMP in HEK293 transiently expressing rat RXFP2 (rRXFP2; INSL3 EC50 = 13 nM). […] Only 7 of 104 compounds had rRXFP2 IC50 < 100 µM, indicating poorly conserved receptor binding sites across species. RXFP2 blockers were organized into two potential series, based on structural similarity. A hit expansion campaign was conducted to confirm structure activity relationships, improve potency, and improve the drug-like properties (LE ~ 0.3, PFI < 6, MWt < 350, Solubility by CLND/CAD > 100 μg/mL). BRL-37274 and GSK618069 were identified as selective RXFP2 antagonists. […] BRL-37274 had IC50 = 15.8 µM with 91% maximum effect, and twofold less potency against rRXFP2. Ultimately, poor chemical properties and low ligand efficiency limited further compound optimization (Table 1, Supplementary Figs. S6, S7).
as §1, §2

[4] = molecular target: rat RXFP2 (Rattus norvegicus, UniProt F7EMH8); experiment: INSL3-stimulated CYP11B2 mRNA expression in H295R stably expressing rat RXFP2; settings: read-out: IC50 on INSL3-stimulated CYP11B2 mRNA expression; H295R-rRXFP2, 3.5 nM rat INSL3 (EC80), 48 h, qPCR; tested form: formate
Procedure: RXFP2 antagonists were added to H295R-rRXFP2 before addition of INSL3 EC80 (3.5 nM) for 48 h, whereupon the cells and supernatants were collected. CYP11B1 and CYP11B2 mRNA were determined by qPCR and the RXFP2 blocker potencies were calculated (Fig. 5a). Fifteen antibodies have IC50s < 50 nM, and three of the top antibodies (1F2, 4G6, and 2D4) were selected for evaluation in steroid hormone secretion assays by ELISA.
Cells were prepared as described above and used for assays. 55,000 cells were detached and seeded into each well of a 96-well plate. Replica plates at 3.33× final concentration of the test compound were made and cells were treated with test compounds or mAbs for 1 h before human INSL3 at approximately EC80 (270 pM) was added to the wells. The final test compound or mAb concentrations ranged from 10 mM to 15 nM (in 1% DMSO or PBS). […]
Total RNA was prepared using the MagMax MirVana Total RNA isolation kit (Applied Biosystems, A27828), and cDNA synthesis was performed per manufacturer’s protocol. […] Probes for CYP11B1 (Hs01596404_m1), CYP11B2 (Hs01597732_m1), and GAPDH (Hs02786624_g1) were analyzed. RT-qPCR data was analyzed using the ΔΔCt method. ΔCt was calculated by subtracting internal GAPDH control Ct from the gene Ct. ΔΔCt was calculated by subtracting the average ΔCt of all negative control samples. Gene expression fold change (FC) was calculated as FC = 2^(−ΔΔCt). […]

[5] = tested on: rat RXFP2; experiment: INSL3-stimulated cAMP assay in HEK293 with BacMam expression of rat RXFP2; settings: HEK cAMP assays
Procedure: as §3, §1, §2

[6] = molecular target: human RXFP1 (Homo sapiens, UniProt Q9HBX9); experiment: Relaxin-stimulated cAMP assay in HEK293 with BacMam expression of human RXFP1; settings: relaxin EC80-induced cAMP, HEK cells with Bacmam hRXFP1
Procedure: Active compounds (RXFP2 HTRF IC50 < 100 µM, RXFP2 FLIPR IC50 < 100 µM) were profiled to determine selectivity and rat cross-reactivity (Fig. 2). The RXFP1 assay detected compound inhibition of relaxin EC80-induced cAMP in HEK293 transiently expressing human RXFP1 (hRXFP1). The orthologue RXFP2 assay detected compound inhibition of INSL3 EC80-induced cAMP in HEK293 transiently expressing rat RXFP2 (rRXFP2; INSL3 EC50 = 13 nM). […] Only 7 of 104 compounds had rRXFP2 IC50 < 100 µM, indicating poorly conserved receptor binding sites across species. RXFP2 blockers were organized into two potential series, based on structural similarity. A hit expansion campaign was conducted to confirm structure activity relationships, improve potency, and improve the drug-like properties (LE ~ 0.3, PFI < 6, MWt < 350, Solubility by CLND/CAD > 100 μg/mL). BRL-37274 and GSK618069 were identified as selective RXFP2 antagonists. […]
cAMP generation was measured using the Lance Ultra cAMP kit as per manufacturer’s instructions (Perkin Elmer) in HEK293 cells transduced in tissue culture flasks with RXFP BacMam, incubated at 37 °C/5% CO2 for 18 h before assay. […] After a 30 min incubation, 4 µL of Lance detection reagent was added and the FRET signal read 1 h later using a TR-FRET-capable plate reader, with excitation at 340 nm and emission at 615 nm and 665 nm. […]

Row | SMILES | Human RXFP2 % Max response [1] | IC50 [1] | CAD SOL (solubility) [2] | Rat RXFP2 % Max Response [3] | IC50 [3] | Human RXFP2 % Max response ([1]; tested form: formate) | IC50 ([1]; tested form: formate) | LE (ligand efficiency) ([1]; tested form: formate) | IC50 [4] | CAD SOL (solubility) ([2]; tested form: formate) | Rat RXFP2 % Max Response ([3]; tested form: formate) | IC50 ([3]; tested form: formate) | reduced potency against rRXFP2 versus hRXFP2 ([5]; tested form: formate) | Human RXFP1 IC50 ([6]; tested form: formate) | LE (ligand efficiency) [1] | reduced potency against rRXFP2 versus hRXFP2 [5] | Human RXFP1 IC50 [6]
1 | CNC(=O)c1ccc(-c2nn(C)c(=O)cc2NCc2cn(C)cn2)cc1 | 1.5% | > 100 µM | > 235 µg/mL | 2% | > 100 µM |  |  |  |  |  |  |  |  |  |  |  | 
2 | O=C(NC1CCCC1)N1CCN(c2cccc3c2nc(-c2ccncc2)n3C2CCNCC2)CC1 |  |  |  |  |  | 100% | 0.4 µM | 0.3 | 2.8 µM | > 182 µg/mL | 56% | 79.4 µM | 200 fold | < 4 µM |  |  | 
3 | CC(C)[C@@H](NS(=O)(=O)c1ccc(C(=O)O)n1C)C(=O)N(C)Cc1ccc(-c2ccc3[nH]ccc3c2)cc1 | 5% | > 100 µM | > 209 µg/mL | 2% | > 100 µM |  |  |  |  |  |  |  |  |  |  |  | 
4 | Clc1cc(CSCc2ccccc2)cc(Cl)c1NC1=NCCN1 | 91% | 15.8 µM | 116 µg/mL | 87% | 31.6 µM |  |  |  |  |  |  |  |  |  | 0.3 | twofold | < 4 µM

Where two headings read alike, the source gives them in different places.
